Reference: PubChem BioAssay AID602162 (NMMLSC, 2011)
Only a part is listed here, and it is no random draw. Some results for these compounds are left out of this collection, so the calls shown say nothing about other tests. Active and inactive are the calls of the source.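 How the source made its calls: active means fluorescence ratio to DMSO below 75%, the collection mean minus 3 SD; inconclusive means too few cells collected in the well; inactive means the rest.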

The chains behind the UniProt entries cited, without tags or fusion partners.
UniProt Q9NP58, whole entry: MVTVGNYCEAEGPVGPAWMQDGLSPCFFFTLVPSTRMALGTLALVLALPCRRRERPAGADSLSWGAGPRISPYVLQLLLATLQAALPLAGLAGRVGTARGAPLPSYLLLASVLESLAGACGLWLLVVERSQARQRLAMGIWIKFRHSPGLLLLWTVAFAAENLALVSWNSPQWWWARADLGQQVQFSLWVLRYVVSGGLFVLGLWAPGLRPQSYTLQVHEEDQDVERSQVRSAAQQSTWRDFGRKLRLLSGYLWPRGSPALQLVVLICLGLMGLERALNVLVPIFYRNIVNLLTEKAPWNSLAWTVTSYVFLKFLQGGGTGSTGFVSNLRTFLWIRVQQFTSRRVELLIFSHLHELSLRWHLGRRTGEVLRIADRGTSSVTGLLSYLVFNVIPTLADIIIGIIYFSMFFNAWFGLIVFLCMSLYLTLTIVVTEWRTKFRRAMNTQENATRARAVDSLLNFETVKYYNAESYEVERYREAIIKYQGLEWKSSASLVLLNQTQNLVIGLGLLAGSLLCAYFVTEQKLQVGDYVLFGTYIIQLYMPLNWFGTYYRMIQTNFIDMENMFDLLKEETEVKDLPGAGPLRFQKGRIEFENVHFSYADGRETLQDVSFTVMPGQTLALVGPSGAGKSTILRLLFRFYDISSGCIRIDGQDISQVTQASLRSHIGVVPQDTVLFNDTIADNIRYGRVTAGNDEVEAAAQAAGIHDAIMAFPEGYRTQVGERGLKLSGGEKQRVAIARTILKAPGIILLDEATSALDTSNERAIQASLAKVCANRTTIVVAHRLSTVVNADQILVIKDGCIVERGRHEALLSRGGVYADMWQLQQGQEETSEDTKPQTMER

What follows are compounds tested against ATP-binding cassette sub-family B member 6 (Homo sapiens) (UniProt Q9NP58) (assay: blockers of ABCB6-driven porphyrin uptake – K562-ABCB6 cells, flow cytometry, MLPCN library, primary screen (AID 602162;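 further: signal is porphyrin accumulated inside mitochondria; 100% equals median channel fluorescence of DMSO control wells; lower ratio means ABCB6 inhibition with less porphyrin fluorescence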)). Conditions: K562-ABCB6 porphyrin accumulation, 1 h, at 10 µM, stronger effect = lower value.
In the case of `COc1ccc(Cl)cc1C(=O)NCC1(N(C)C)CCCCC1`, the fluorescence ratio to DMSO is reported as inactive: 102%. In the case of `COc1cccc(C(=O)NCC2(N3CCCCC3)CCCCC2)c1`, the fluorescence ratio to DMSO is reported as inactive: 95%. `O=C(NCC1(N2CCCCC2)CCCCC1)c1cccc(Cl)c1` was tested, and the fluorescence ratio to DMSO was inactive: 98%. In the case of `CN(C)C1(CNC(=O)c2ccc(Br)cc2)CCCCC1`, the fluorescence ratio to DMSO is reported as inactive: 100%. For `COc1cc(C(=O)NCC2(N(C)C)CCCCC2)c([N+](=O)[O-])cc1OC`, the fluorescence ratio to DMSO was inactive: 96%. For `C=C(C)C#CC(O)(C(=O)OC1CCN(C)CC1)c1ccccc1` (stereo unspecified), the fluorescence ratio to DMSO was inactive: 104%. For `COc1ccc(Br)c(C(=O)NCC2(N3CCCCC3)CCCCC2)c1`, the fluorescence ratio to DMSO was inactive: 99%. In the case of `O=C(OCCN1CCCC1)C(O)(c1ccccc1)c1ccccc1`, the fluorescence ratio to DMSO is reported as inactive: 97%. For `CC(C)Oc1ccc(C(=O)NCC2(N(C)C)CCCCC2)cc1`, the fluorescence ratio to DMSO was inactive: 98%. In the case of `CN(C)c1cccc(C(=O)NCC2(N(C)C)CCCCC2)c1`, the fluorescence ratio to DMSO is reported as inactive: 92%. In the case of `O=C(OC1CN2CCC1CC2)C(CO)(c1ccccc1)c1ccccc1` (stereo unspecified), the fluorescence ratio to DMSO is reported as inactive: 109%. With `COc1cc(SC)ccc1C(=O)NCC1(N(C)C)CCCCC1` the fluorescence ratio to DMSO was inactive: 95%. For `CCN(CC)CC(C)C(C)OC(=O)C(O)(c1ccccc1)c1ccccc1` (stereo unspecified), the fluorescence ratio to DMSO was inactive: 102%. `CC(C)N1C(=O)CC2(CCN(CCOC(=O)C(O)(c3ccccc3)c3ccccc3)CC2)C1=O` was tested, and the fluorescence ratio to DMSO was inactive: 96%. In the case of `Cc1ccc(C(=O)NCC2(N3CCCCC3)CCCCC2)cc1`, the fluorescence ratio to DMSO is reported as inactive: 99%. With `O=C(NCC1(N2CCCCC2)CCCCC1)c1cc([N+](=O)[O-])ccc1Cl` the fluorescence ratio to DMSO was inactive: 99%. For `CN1[C@@H]2CC[C@H]1CC(OC(=O)C(O)(c1ccccc1)c1ccccc1)C2` (stereo partly specified), the fluorescence ratio to DMSO was inactive: 98%. For `O=C(NCC1(N2CCCCC2)CCCCC1)c1cc(F)c(F)cc1Cl`, the fluorescence ratio to DMSO was inactive: 97%. For `C=CCN1CCN(CCOC(=O)C(O)(c2ccccc2)c2ccccc2)CC1`, the fluorescence ratio to DMSO was inactive: 97%. In the case of `COc1ccc(C(=O)NCC2(N(C)C)CCCCC2)cc1`, the fluorescence ratio to DMSO is reported as inactive: 101%. With `O=C(NCC1(N2CCCCC2)CCCCC1)c1cccc(Br)c1` the fluorescence ratio to DMSO was inactive: 93%. With `Cc1cc(C(=O)NCC2(N3CCCCC3)CCCCC2)ccc1[N+](=O)[O-]` the fluorescence ratio to DMSO was inactive: 90%. In the case of `CCN1CCCC(OC(=O)C2(O)c3ccccc3C=Cc3ccccc32)C1` (stereo unspecified), the fluorescence ratio to DMSO is reported as inactive: 100%. `CN(C)C1CCCC1OC(=O)C(O)(c1ccccc1)c1ccccc1` (stereo unspecified) was tested, and the fluorescence ratio to DMSO was inactive: 95%. In the case of `CN(C)c1ccc(C(=O)NCC2(N(C)C)CCCCC2)cc1`, the fluorescence ratio to DMSO is reported as inactive: 101%. For `Cc1ccccc1C(=O)NCC1(N2CCCCC2)CCCCC1`, the fluorescence ratio to DMSO was inactive: 100%.
